Assay results reported in paper PMC9573667, “Efficient Oxidative Dearomatisations of Substituted Phenols Using Hypervalent Iodine (III) Reagents and Antiprotozoal Evaluation of the Resulting Cyclohexadienones against T. b. rhodesiense and P. falciparum Strain NF54” (Molecules, 2022).

Experiments:
[1] = system: P. falciparum, strain NF54, erythrocytic stages; experiment: In vitro growth inhibition assay of Plasmodium falciparum NF54 ([3H]-hypoxanthine incorporation); settings: based on IC50 values in nmol/L; DataWarrior 5.5.0
Experimental: Antimalarial activity was determined in vitro against the erythrocytic stages of P. falciparum using the drug-sensitive strain NF54. Parasite proliferation was assessed by incorporation of [^3H]-hypoxanthine using a modified version of [75]; for details, please refer to the Supplementary Materials. The positive control was chloroquine.
1. Experimental of biological testing
1.1 In vitro growth inhibition assay of Plasmodium falciparum NF54
Plasmodium falciparum, strain NF54, erythrocytic stages, and the standard drug, chloroquine, were used for the assay. The parasite cultures incubated in RPMI 1640 medium with 5% AlbuMAXTM (without hypoxanthine) were exposed to serial drug dilutions in microtiter plates. After 48 h of incubation at 37 °C in a reduced oxygen atmosphere, 0.5 μCi [3H]-hypoxanthine was added to each well of the plate. Cultures were incubated for a further 24 h before they were harvested onto glass-fiber filters and washed with distilled water. The radioactivity was counted using a BetaplateTM liquid scintillation […]
counter (Wallac, Zurich). […]
concentration and expressed as percentage of the untreated controls. IC50 values were calculated from the sigmoidal inhibition curves using Microsoft Excel. Chloroquine was used as control. […]

[2] = system: T. brucei rhodesiense, strain STIB900 trypomastigote forms; experiment: In vitro growth inhibition assay of Trypanosoma brucei rhodesiense STIB900 (Alamar blue); settings: based on IC50 values in nmol/L; DataWarrior 5.5.0
Experimental: Trypanocidal activity was determined in vitro against axenically grown bloodstream-forms of T. b. rhodesiense STIB900 as described in Refs. [76, 77] and detailed in the Supplementary Materials. Parasite proliferation was assessed via fluorescence of the redox-sensitive dye resazurin (Alamar blue). The drug melarsoprol was used as the positive control. […]
1.2 In vitro growth inhibition assay of Trypanosoma brucei rhodesiense
Trypanosoma brucei rhodesiense, STIB 900 strain, and the standard drug, melarsoprol, were used for the assay. Minimum Essential Medium (50 μL) supplemented with 25 mM HEPES, 1g/L additional glucose, 1% MEM non-essential amino acids (100x), 0.2 mM 2-mercaptoethanol, 1 mM Na-pyruvate and 15% heat-inactivated horse serum was added to each well of a 96-well microtiter plate. Serial drug dilutions of 11 three-fold dilution steps covering a range from 100 to 0.002 μg/mL were prepared. Then […]
mL double-distilled water) was then added to each well and incubation continued for a further 2–4 h.
Then, the plates were read with a Spectramax Gemini XS microplate fluorometer (Molecular Devices Cooperation, Sunnyvale, CA, USA) using an excitation wavelength of 536 nm and an emission wavelength of 588 nm. The IC50 values were calculated from the sigmoidal inhibition curves using the microplate reader software Softmax Pro (Molecular Devices Cooperation, Sunnyvale, CA, USA). […]

Q: With `O=C1C=C(Cc2ccccc2)C(=O)c2ccccc21` [Compound 5c, 2-Benzyl-1,4-dihydronaphthalene-1,4-dione] as the molecule, how does the “ligand efficiency lipophilic price (LELP), P. falciparum” value [1] read?
A: 7.6191

Q: What about the “lipophilic ligand efficiency (LLE), P. falciparum” value [1] of the same molecule?
A: 2.7161

Q: What about the “ligand efficiency lipophilic price (LELP), T. brucei rhodesiense” value [2] of the same molecule?
A: 6.4819

Q: What about the “lipophilic ligand efficiency (LLE), T. brucei rhodesiense” value [2] of the same molecule?
A: 3.7754
